# Measured values as given in US20140271930A1, “NONINVASIVE METHOD FOR MEASURING METABOLITES FOR SKIN HEALTH” (priority 2013, published 2014).
# Marks after values point to notes of the source that are not given here.
# System: scalp of dandruff and non-dandruff subjects
# Test: Metabolite expression profiling (LC/MS/MS, GC/MS/MS) of scalp D-Squame tape strip extracts: non-dandruff, dandruff baseline, dandruff after 3 weeks anti-dandruff shampoo
# Assay type: in vivo, human
smiles,measurement,setting,value
CCCCCCCCCCCCCCC(C)C(=O)O (stereo not drawn) [2-methylpalmitate],Mean Values WEEK 3 TRT Sel,"dandruff subjects after 3 weeks treatment with Sel shampoo, metabolite level in scalp tape strip extract",0.1469
same,Mean Values WEEK 3 TRT ZPT,"dandruff subjects after 3 weeks treatment with ZPT shampoo, metabolite level in scalp tape strip extract",0.2049
same,Fold Change Wk 3 Sel vs Dandruff Baseline,"metabolite level in scalp tape strips, standardized to soluble protein, dandruff subjects after 3 weeks 1% selenium sulfide shampoo vs own baseline",0.1* fold
same,Fold Change Wk 3 ZPT vs Dandruff Baseline,"metabolite level in scalp tape strips, standardized to soluble protein, dandruff subjects after 3 weeks 1% zinc pyrithione shampoo vs own baseline",0.17* fold
same,Fold Change Wk 3 ZPT vs Non-Dan Baseline,"metabolite level in scalp tape strips, dandruff subjects after 3 weeks 1% ZPT shampoo vs non-dandruff subjects",0.2* fold
same,Fold Change Wk 3 Sel vs Non-Dan Baseline,"metabolite level in scalp tape strips, dandruff subjects after 3 weeks 1% selenium sulfide shampoo vs non-dandruff subjects",0.14* fold
